In PubChem BioAssay AID1645859 (Buhrlage Lab, Dana-Farber Cancer Institute and Novartis …, 2021):
Only a part is listed here, and it is no random draw. Activity calls are given as the source filed them. Rule as the data show it: active = inhibition above about 30%; inactive = the rest.

By UniProt entry, the sequences of proteins in these tests, tags left out.
UniProt P09936, whole entry: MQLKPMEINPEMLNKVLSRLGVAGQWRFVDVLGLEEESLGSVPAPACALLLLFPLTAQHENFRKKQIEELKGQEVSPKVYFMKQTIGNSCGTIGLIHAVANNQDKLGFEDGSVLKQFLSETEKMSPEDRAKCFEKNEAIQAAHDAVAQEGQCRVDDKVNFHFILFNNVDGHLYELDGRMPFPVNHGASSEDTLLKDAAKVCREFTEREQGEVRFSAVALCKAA

Biological target: Ubiquitin carboxyl-terminal hydrolase isozyme L1 (Homo sapiens) (UniProt P09936)
Assay: blocks human UCHL1 ubiquitin-rhodamine cleavage (AID 1645859)
Details: purified UCHL1, Ub-rhodamine cleavage fluorescence; at 20 µM; hits give high values

SMILES	inhibition
CN(C)c1ccc(C(=O)NCC2(N3CCCCC3)CCCCC2)cc1	inactive: 2.38%
N#Cc1ccc(C(=O)NCC2(N3CCCCC3)CCCCC2)cc1	inactive: -2.04%
O=C(NCC1(N2CCCCC2)CCCCC1)c1ccc2ncsc2c1	inactive: -3.8%
Cc1ccccc1C(=O)NCC1(N2CCOCC2)CCCCC1	inactive: -1.06%
Cc1cc(C(=O)NCC2(N3CCOCC3)CCCCC2)c2ccccc2n1	inactive: -1.35%
O=C(NCC1(N2CCOCC2)CCCCC1)c1ccccc1Cl	inactive: -2.3%
O=C(NCC1(N2CCCCC2)CCCCC1)c1ccc(F)cc1	inactive: -8.99%
CC1CN(CCc2ccccc2)CCC1=O (stereo not drawn)	inactive: 0.546%
